Experimental data reported in patent US20050095240A1, “NaCT as a target for lifespan expansion and weight reduction” (Medical College of Georgia Research, priority 2002, published 2005).

Protein sequences, listed by entry. Tags and fused reporters are not part of them. Lines headed by an entry give the natural chain unless they say otherwise; changes in a name come on top.
UniProt Q86YT5: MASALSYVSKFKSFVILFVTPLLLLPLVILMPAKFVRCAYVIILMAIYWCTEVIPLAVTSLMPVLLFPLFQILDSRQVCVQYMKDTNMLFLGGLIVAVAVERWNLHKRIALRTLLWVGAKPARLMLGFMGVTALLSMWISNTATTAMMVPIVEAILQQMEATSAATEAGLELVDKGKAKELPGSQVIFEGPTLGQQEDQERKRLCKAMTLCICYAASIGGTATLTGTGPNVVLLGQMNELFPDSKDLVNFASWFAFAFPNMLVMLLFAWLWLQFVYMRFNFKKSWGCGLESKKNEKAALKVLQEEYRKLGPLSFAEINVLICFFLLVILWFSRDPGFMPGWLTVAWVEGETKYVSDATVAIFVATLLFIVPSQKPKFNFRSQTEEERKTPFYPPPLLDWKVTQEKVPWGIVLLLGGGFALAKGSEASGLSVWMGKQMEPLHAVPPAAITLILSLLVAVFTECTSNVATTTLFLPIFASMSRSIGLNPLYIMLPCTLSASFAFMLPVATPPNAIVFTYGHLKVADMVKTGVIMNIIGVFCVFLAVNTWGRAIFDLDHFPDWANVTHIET

Experiments:
Type in all cases: cell-based
[1] = biological target: human NaCT (Homo sapiens, UniProt Q86YT5); experiment: Uptake via human NaCT expressed in HRPE cells
[2] = biological target: T1, mouse NaCT (Mus musculus, UniProt Q67BT3); experiment: Transport via mouse NaCT expressed in HRPE cells
T1 sequence (Q67BT3 1-572): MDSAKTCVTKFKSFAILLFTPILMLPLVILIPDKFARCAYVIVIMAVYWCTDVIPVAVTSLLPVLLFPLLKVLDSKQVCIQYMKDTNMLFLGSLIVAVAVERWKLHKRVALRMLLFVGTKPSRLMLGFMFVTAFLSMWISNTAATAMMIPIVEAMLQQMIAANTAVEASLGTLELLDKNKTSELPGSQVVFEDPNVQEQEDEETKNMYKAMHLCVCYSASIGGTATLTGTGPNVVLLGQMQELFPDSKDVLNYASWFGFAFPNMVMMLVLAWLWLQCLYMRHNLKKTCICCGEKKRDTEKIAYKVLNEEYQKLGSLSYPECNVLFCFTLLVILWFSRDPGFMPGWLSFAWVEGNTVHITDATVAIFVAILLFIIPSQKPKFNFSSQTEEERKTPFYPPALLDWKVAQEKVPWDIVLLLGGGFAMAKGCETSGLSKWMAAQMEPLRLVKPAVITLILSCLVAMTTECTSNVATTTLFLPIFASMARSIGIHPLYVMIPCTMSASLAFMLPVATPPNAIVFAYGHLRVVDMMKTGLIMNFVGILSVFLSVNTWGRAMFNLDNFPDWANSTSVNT

[3] = biological target: T2, zebrafish NaCT (Danio rerio, UniProt A0A2R8QQN0, K78Q); experiment: Citrate uptake via zebrafish NaCT expressed in HRPE cells
T2 sequence (A0A2R8QQN0 2-582 K78Q): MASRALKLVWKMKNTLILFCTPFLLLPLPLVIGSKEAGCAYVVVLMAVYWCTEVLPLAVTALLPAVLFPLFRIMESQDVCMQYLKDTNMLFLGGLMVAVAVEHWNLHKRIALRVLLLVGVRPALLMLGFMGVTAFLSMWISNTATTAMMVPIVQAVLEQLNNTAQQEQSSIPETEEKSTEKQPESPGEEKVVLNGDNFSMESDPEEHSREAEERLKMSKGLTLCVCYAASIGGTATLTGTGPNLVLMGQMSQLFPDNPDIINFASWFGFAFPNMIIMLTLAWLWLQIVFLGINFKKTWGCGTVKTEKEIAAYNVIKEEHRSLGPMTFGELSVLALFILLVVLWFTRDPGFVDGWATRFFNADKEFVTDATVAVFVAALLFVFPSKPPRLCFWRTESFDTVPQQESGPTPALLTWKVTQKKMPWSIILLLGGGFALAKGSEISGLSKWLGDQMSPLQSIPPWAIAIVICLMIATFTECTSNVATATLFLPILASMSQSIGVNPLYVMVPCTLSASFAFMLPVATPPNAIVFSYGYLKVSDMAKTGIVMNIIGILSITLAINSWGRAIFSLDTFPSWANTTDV

Compound | [^14C]-Citrate Uptake, % [1] | [^3H]-Succinate transport, % [2] | [^14C]-Citrate transport, % [2] | IC50 [3]
O=C(O)CC(C(=O)O)C(O)C(=O)O (stereo not shown) [Isocitrate] | 125% | 86% | 69% | –
O=C(O)/C=C(/CC(=O)O)C(=O)O [cis-Aconitate, cis-aconitate] | – | – | – | 624 ± 45 µM
